This note sets out measurements from patent EP4792886A2, “CNP PRODRUGS” (Ascendis Pharma Growth Disorders A/S, priority 2015, dated 2016).

Amino acid sequences for entries named in this document (tags omitted). A change or cut given only in a name is not applied to a line headed by its entry.
UniProt P08473: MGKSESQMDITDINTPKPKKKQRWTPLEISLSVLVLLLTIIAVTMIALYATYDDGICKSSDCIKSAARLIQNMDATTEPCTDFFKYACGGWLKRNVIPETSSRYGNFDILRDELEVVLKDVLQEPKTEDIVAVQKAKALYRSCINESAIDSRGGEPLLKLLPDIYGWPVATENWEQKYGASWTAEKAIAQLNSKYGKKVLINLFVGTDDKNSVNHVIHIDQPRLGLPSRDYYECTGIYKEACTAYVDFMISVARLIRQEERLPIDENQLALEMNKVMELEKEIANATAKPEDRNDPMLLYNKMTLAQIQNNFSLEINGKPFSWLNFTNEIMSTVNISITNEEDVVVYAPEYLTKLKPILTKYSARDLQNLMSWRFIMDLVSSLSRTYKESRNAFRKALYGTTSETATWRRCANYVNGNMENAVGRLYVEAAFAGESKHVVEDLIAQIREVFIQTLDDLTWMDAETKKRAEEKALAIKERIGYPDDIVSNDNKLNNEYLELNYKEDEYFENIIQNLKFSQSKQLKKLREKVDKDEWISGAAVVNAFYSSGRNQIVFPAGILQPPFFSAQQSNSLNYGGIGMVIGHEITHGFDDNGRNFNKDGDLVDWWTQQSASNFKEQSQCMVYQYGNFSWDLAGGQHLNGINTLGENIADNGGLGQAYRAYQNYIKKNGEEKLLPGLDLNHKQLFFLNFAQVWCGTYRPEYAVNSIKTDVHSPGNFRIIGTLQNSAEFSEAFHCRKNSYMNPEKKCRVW

The target of this data set is recombinant human NEP (Homo sapiens, UniProt P08473). Put plainly: Digest of CNP variants by Neutral Endopeptidase in vitro (NEP digest assay). The settings on record: NEP 2.5 µg/mL, 100 µg CNP equivalents/mL, 50 mM Tris-HCl pH 7.4, 10 mM NaCl, 37 °C, up to 4 days; normalized to mean CNP-34 ([…], footnote 1) or CNP-38 ([…], footnote 2) half life; stable analogs. An excerpt:
Samples were taken at different time intervals. […] The resulting reaction products were assigned using HPLC-MS.

Take CNP-34: the “half life norm.” value was 4.15 h.
